# Reported properties for industrial, environmental and drug-like chemicals

From the experimental data distributed with OPERA 2.9.

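These are experimental values that the OPERA curators gathered from public databases to train and test their QSAR models. One number stands for a compound and property, with no spread given. Conditions of the individual experiments are not part of the data. The measured form (salt, isomer or mixture) is not always the one drawn. Some upstream entries may be estimates or bounds without being marked so.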

Melting points are in °C.
The boiling point refers to atmospheric pressure (760 mmHg), by the definition of the set.
The octanol-water partition coefficient is given as log10; larger values mean a more lipophilic compound.
Solubility in water is on a log10 molar scale (set defined at 25 °C).
Vapor pressures (log10 mmHg) refer to near room temperature, 15 to 30 °C; higher is more volatile.
Henry's law constant (air-water partitioning) is log10 of atm·m3/mol, nominally at 25 °C.
The unbound fraction in human plasma runs from 0 (all bound) to 1 (all free).
Intrinsic clearance (human, µL/min per 10^6 hepatocytes): higher is faster turnover, and 0 stands for none detected.
A structure that stands twice has two entries in the source.

For C1CC(COCC2CO2)CCC1COCC1CO1 (stereo unspecified) the data give log Kow 2.29 and log solubility -1.836 (log10 mol/L) and log vapor pressure -4.74 (log10 mmHg).
For CCCCCCC1(CC)C(=O)NC(=O)NC1=O the data give mp 125 °C and log solubility -3.05 (log10 mol/L).
For Cc1c([N+](=O)[O-])c(C)c([N+](=O)[O-])c(C(C)(C)C)c1[N+](=O)[O-] the data give log Kow 4.9 and log solubility -5.783 (log10 mol/L) and log vapor pressure -6.648 (log10 mmHg).
For CNC(=O)Oc1cccc(N=CN(C)C)c1.Cl the data give fraction unbound 0.8859 and hepatic Clint 13.72 µL/min/10^6 cells.
For CC(C)(C)CC(C)(C)c1ccc(Nc2ccc(C(C)(C)CC(C)(C)C)cc2)cc1 the data give mp 95.7 °C and log vapor pressure -7.084 (log10 mmHg).
For Cc1cc(C(F)(C(F)(F)F)C(F)(F)F)ccc1NC(=O)c1cccc(I)c1C(=O)NC(C)(C)CS(C)(=O)=O the data give mp 219.1 °C and log Kow 4.2 and log solubility -7.37 (log10 mol/L).
For CNC(=O)ON=CC(C)(C)SC the data give fraction unbound 0.4808 and hepatic Clint 0.75 µL/min/10^6 cells.
For FC(F)(Cl)Cl the data give fraction unbound 0.7731 and hepatic Clint 0.05 µL/min/10^6 cells.
For CC1=C(C(=O)Nc2ccccc2)SCCO1 the data give fraction unbound 0.1758 and hepatic Clint 24.41 µL/min/10^6 cells.
For CNC1=C(c2cccc(C(F)(F)F)c2)C(=O)C(c2ccccc2)O1 (stereo unspecified) the data give mp 152 °C and log Kow 3.22 and log solubility -4.489 (log10 mol/L) and log vapor pressure -8.471 (log10 mmHg) and log H -9.892 (log10 atm·m3/mol).
For CCN(CC)CC#N the data give mp -6 °C and log Kow 0.48 and log vapor pressure 0.264 (log10 mmHg).
For COP(=S)(OC)Oc1ccc(Sc2ccc(OP(=S)(OC)OC)cc2)cc1 the data give log vapor pressure -7.155 (log10 mmHg) and log H -8.707 (log10 atm·m3/mol).
For CN(CC[C@H](N)CC(O)=N[C@H]1C=C[C@H](n2ccc(=N)nc2O)O[C@@H]1C(=O)O)C(=N)N the data give log Kow -4.7 and log solubility -4.15 (log10 mol/L).
For Cl.N=C(Nc1ccccc1)Nc1ccccc1 the data give log Kow -1.77 and log vapor pressure -7.785 (log10 mmHg).
For CC(C)N(Cc1ccccc1)C(=O)C(C)(C)C the data give log H -6.83 (log10 atm·m3/mol) and fraction unbound 0.2267 and hepatic Clint 9.846 µL/min/10^6 cells.
For O=C(CBr)Nc1ccc(Cl)cc1C(=O)c1ccccc1F the data give mp 132.5 °C and log solubility -5.574 (log10 mol/L).
For CSC1=N[C@@](C)(c2ccccc2)C(=O)N1Nc1ccccc1 the data give log vapor pressure -8.593 (log10 mmHg) and log H -10.31 (log10 atm·m3/mol).
For CO[Si](C)(CN=C=O)OC the data give mp -63.7 °C and log vapor pressure -0.374 (log10 mmHg).
For CSC1=N[C@@](C)(c2ccccc2)C(=O)N1Nc1ccccc1 the data give log solubility -4.6 (log10 mol/L) and hepatic Clint 17.74 µL/min/10^6 cells.
For CCC(=NOC/C=C/Cl)C1=C(O)CC(C2CCOCC2)CC1=O (stereo partly drawn) the data give log solubility -2.9 (log10 mol/L) and log vapor pressure -6.693 (log10 mmHg) and log H -10.06 (log10 atm·m3/mol) and fraction unbound 0.3826 and hepatic Clint 3.35 µL/min/10^6 cells.
For CCNc1nc(Cl)nc(NC(C)(C)C#N)n1 the data give fraction unbound 0.3166 and hepatic Clint 3.16 µL/min/10^6 cells.
For CCOP(=S)(OCC)Oc1nc(Cl)c(Cl)cc1Cl the data give boiling point 160 °C and fraction unbound 0.007932 and hepatic Clint 2.6 µL/min/10^6 cells.
For Nc1nnn[nH]1 the data give log Kow -0.92 and log solubility -0.836 (log10 mol/L) and log vapor pressure -8.277 (log10 mmHg).
For CC(C)c1ccc(NC(=O)N(C)C)cc1 the data give fraction unbound 0.258 and hepatic Clint 0 µL/min/10^6 cells.
For CCCOC(=O)OOC(=O)OCCC the data give log Kow 2.96 and log solubility -3.976 (log10 mol/L) and log vapor pressure 0.429 (log10 mmHg).
For Cc1cc(Cc2cc(C)c(N)c(C)c2)cc(C)c1N the data give log Kow 2.6 and log solubility -3.974 (log10 mol/L) and log vapor pressure -7.618 (log10 mmHg).
For CCOP(=O)(NC(C)C)Oc1ccc(S(C)=O)c(C)c1 (stereo unspecified) the data give log solubility -2.489 (log10 mol/L) and log H -9.438 (log10 atm·m3/mol).
For CCCCNC(=O)OCC#CI the data give log Kow 2.845 and log vapor pressure -4.754 (log10 mmHg).
For C=CCC1(CC(C)(C)C)C(=O)NC(=O)NC1=O the data give mp 156 °C and log Kow 2.06.
For CN(C)C(=O)Nc1ccc(Cl)cc1 the data give fraction unbound 0.4551 and hepatic Clint 3.086 µL/min/10^6 cells.
For Clc1ccc(C(Cl)(Cl)Cl)cn1 the data give log Kow 4 and log solubility -3.368 (log10 mol/L).
For CC[C@@H](CO)NC(=O)[C@@H]1C=C2c3cccc4c3c(cn4C)C[C@H]2N(C)C1 the data give log Kow 1.5 and log solubility -3.198 (log10 mol/L) and fraction unbound 0.34.
For Cc1cc(C)c(C(=O)P(=O)(c2ccccc2)c2ccccc2)c(C)c1 the data give log Kow 3.1 and log solubility -4.756 (log10 mol/L) and log vapor pressure -7.792 (log10 mmHg).

Extract of 2 entries:

For CNC(=O)ON=CC(C)(C)SC the data give fraction unbound 0.4808 and hepatic Clint 0.75 µL/min/10^6 cells.
For COP(=S)(OC)Oc1ccc(Sc2ccc(OP(=S)(OC)OC)cc2)cc1 the data give log vapor pressure -7.155 (log10 mmHg) and log H -8.707 (log10 atm·m3/mol).